For this test, the target named is Protein arginine N-methyltransferase 5 (Homo sapiens, UniProt O14744). Description: Inhibition of PRMT5 (unknown origin).

By UniProt entry, the sequences of proteins in these tests, tags left out.
UniProt O14744, whole entry: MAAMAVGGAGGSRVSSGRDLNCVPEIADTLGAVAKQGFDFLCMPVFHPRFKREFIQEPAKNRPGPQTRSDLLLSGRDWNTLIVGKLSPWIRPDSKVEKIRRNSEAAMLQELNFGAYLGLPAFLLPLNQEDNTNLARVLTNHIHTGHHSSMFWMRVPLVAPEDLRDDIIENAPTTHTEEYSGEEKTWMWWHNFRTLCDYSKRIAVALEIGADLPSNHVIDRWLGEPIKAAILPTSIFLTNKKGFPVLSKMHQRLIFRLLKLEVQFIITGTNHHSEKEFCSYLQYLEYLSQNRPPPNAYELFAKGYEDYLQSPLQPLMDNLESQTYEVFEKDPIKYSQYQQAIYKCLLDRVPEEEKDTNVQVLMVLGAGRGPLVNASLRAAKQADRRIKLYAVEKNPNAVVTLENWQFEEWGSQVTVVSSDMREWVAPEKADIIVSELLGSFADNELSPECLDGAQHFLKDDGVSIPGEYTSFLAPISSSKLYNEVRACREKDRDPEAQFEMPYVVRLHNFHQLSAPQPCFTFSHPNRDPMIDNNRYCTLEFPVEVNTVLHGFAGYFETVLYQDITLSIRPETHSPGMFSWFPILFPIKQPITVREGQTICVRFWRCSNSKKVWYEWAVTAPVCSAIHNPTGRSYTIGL

Compound `CC(=O)N1CCC(Nc2cc3c(cn2)CCN(C[C@H](O)[C@@H]2Cc4ccccc4CN2)C3=O)CC1` gave a concentration for half-maximal inhibition (IC50) of 0.481 µM.

The record behind these values is ChEMBL document CHEMBL5512621, “Overview of the development of protein arginine methyltransferase modulators: Achievements and future directions” (Eur J Med Chem, 2024).
